Values of other authors, collected in patent US9643951B2, “Compound having somatostatin receptor agonistic activity and pharmaceutical use thereof” (ONO PHARMACEUTICAL CO., LTD., priority 2013, dated 2017).

Protein sequences, listed by entry. Tags and fused reporters are not part of them.
UniProt P30872, whole entry, species assumed: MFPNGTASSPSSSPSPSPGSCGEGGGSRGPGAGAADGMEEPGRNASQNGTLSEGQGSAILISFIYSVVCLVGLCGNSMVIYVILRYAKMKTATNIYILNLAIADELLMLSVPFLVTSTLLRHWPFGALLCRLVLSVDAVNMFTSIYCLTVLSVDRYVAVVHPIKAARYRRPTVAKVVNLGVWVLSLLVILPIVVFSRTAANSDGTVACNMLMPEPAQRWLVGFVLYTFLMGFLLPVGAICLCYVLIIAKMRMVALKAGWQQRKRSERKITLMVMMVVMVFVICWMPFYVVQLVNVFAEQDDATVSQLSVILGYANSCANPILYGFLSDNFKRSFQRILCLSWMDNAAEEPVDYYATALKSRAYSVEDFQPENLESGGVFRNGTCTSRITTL
UniProt P32745, whole entry, species assumed: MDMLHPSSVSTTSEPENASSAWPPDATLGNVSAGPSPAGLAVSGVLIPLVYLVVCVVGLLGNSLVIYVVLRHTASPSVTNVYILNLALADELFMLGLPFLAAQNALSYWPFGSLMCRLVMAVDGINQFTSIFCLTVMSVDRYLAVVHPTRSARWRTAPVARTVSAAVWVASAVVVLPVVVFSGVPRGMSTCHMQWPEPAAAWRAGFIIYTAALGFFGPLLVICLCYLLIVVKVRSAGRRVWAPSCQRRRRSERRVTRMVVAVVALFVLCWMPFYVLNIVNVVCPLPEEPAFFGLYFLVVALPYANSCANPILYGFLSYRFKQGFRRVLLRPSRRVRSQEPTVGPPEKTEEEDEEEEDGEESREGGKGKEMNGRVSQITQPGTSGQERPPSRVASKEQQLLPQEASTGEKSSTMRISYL
UniProt P30874, whole entry, species assumed: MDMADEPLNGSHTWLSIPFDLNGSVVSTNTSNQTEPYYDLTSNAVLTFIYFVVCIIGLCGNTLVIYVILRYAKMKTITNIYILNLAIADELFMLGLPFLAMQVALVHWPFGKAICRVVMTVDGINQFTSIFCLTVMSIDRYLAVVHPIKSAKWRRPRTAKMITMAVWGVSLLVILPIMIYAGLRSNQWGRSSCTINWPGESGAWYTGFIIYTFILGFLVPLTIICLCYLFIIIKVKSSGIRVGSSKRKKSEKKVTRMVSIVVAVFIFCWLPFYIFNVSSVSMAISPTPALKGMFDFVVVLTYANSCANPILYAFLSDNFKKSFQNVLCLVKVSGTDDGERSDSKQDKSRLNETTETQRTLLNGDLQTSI
UniProt P31391, whole entry, species assumed: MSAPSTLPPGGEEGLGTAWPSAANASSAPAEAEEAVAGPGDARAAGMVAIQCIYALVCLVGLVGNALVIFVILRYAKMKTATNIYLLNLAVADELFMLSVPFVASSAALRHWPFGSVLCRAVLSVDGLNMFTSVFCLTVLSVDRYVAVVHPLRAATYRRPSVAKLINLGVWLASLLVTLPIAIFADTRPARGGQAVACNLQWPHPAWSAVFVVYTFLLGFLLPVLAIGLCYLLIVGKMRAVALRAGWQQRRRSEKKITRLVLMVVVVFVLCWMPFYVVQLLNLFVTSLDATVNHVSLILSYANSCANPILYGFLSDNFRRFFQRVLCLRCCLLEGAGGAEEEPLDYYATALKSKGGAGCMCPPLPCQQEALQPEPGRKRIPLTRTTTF
UniProt P35346, whole entry, species assumed: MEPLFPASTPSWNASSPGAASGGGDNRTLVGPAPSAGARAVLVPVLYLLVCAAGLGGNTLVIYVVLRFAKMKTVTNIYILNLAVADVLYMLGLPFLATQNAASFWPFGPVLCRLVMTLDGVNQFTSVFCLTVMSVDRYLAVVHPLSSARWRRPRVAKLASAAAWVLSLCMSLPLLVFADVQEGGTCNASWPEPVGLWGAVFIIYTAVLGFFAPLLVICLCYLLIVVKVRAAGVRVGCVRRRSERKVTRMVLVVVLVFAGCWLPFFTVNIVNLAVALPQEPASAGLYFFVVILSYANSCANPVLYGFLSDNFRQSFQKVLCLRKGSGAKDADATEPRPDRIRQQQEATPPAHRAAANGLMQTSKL

Key:
Settings in all cases: reported; cited from earlier work
[1] = molecular target: somatostatin receptor subtype 1 (SSTR1) (Homo sapiens, UniProt P30872)
[2] = molecular target: somatostatin receptor subtype 3 (SSTR3) (Homo sapiens, UniProt P32745)
[3] = molecular target: somatostatin receptor subtype 2 (SSTR2) (Homo sapiens, UniProt P30874)
[4] = molecular target: somatostatin receptor subtype 4 (SSTR4) (Homo sapiens, UniProt P31391)
[5] = molecular target: somatostatin receptor subtype 5 (SSTR5) (Homo sapiens, UniProt P35346)

octreotide acetate
binding to SSTR1 [1]: do not bind | binding affinity to SSTR3 [2]: moderate affinity | binding affinity to SSTR2 [3]: high affinity | binding to SSTR4 [4]: do not bind | binding affinity to SSTR5 [5]: moderate affinity
